# Test results as given in PubChem BioAssay AID1272365 (Small Molecule Screening Facility, UW Madison, 2020).
# Only a part is listed here, and it is no random draw. Calls of active or inactive are those of the source. Cut-off read from the data, not from the text of the source: active = inhibition mostly above about 37% (no sharp cut-off); inactive = mostly below about 20%.
# System: PriA–SSB C-terminal tail interaction (Klebsiella pneumoniae)
# Assay: blocks PriA binding to SSB C-terminal tail, primary screen, biochemical, AlphaScreen (AID 1272365);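 note: plate controls were negative control peptide for no effect and reference peptide for full effect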
# Settings: AlphaScreen SSBct-PriA binding, biotinylated peptide; at 33 µM; stronger effect = higher value
row,SMILES,inhibition
1,CCN(N=Nc1nonc1N)c1nonc1N,inactive: 2.77%
2,Nc1cccc2ccc([As](=O)(O)O)cc12,inactive: -4.6%
3,O=C(O)c1ccccc1[As](=O)(O)O,inactive: -8.83%
4,CC(=O)Nc1ccc([As](=O)(O)O)cc1,inactive: -4.24%
5,CCCC1OP(N)(=O)OCC1CC (configuration not stated),inactive: -0.92%
6,O=P(Nc1nc2ccc(Cl)cc2s1)(c1ccccc1)c1ccccc1,inactive: -4.1%
7,CCOP(=O)(Nc1ccccc1)OCC,inactive: -3.16%
8,Cc1cc(SC(NC(=O)c2ccc(F)cc2)C(Cl)(Cl)Cl)ncn1 (configuration not stated),inactive: -9.15%
9,Cc1ccc(NP(=O)(Oc2ccccc2F)Oc2ccccc2F)nc1,inactive: -6.17%
10,CN(C(=O)Cc1ccc(Cl)c(Cl)c1)[C@H]1CCCC[C@@H]1N1CCCC1,inactive: -2.38%
11,CC(C)CC(=O)NC(Sc1ccc(Cl)cc1)C(Cl)(Cl)Cl (configuration not stated),inactive: -37.1%
12,Nc1cc(N)c2nonc2c1[N+](=O)[O-],inactive: -3.28%
13,Oc1ccccc1CNc1ccccn1,inactive: -10.8%
14,O=C(NC(Sc1ccncn1)C(Cl)(Cl)Cl)c1ccccc1 (configuration not stated),inactive: -12.2%
15,CC(C)C=NNC(=N)N[N+](=O)[O-],inactive: -6.64%
16,NC(=O)c1cc([N+](=O)[O-])cc([N+](=O)[O-])c1N,inactive: -7.07%
17,CN(C(=O)Cc1ccc(Cl)c(Cl)c1)[C@H]1CCCC[C@H]1N1CCCC1,inactive: -3.11%
18,COc1ccccc1OP(=O)(Nc1ccc(C)cn1)Oc1ccccc1OC,inactive: -4.75%
19,Cc1ccc(OP(=O)(Nc2nccs2)Oc2ccc(C)cc2)cc1,inactive: -0.21%
20,Clc1ccc(Cl)c(NC2=NCC(CBr)S2)c1 (configuration not stated),inactive: -9.52%
21,CN1CCCC(OC(=O)C(c2ccccc2)c2ccccc2)C1 (configuration not stated),inactive: -9.5%
22,Nc1ccc([As](=O)(O)c2ccc(N)cc2)cc1,inactive: 3.59%
23,C[N+]1=C2C=CC=CC=C2SC12C([N+](=O)[O-])=CC([N+](=O)[O-])=C[C-]2[N+](=O)[O-] (configuration not stated),inactive: 37.7%

row,SMILES,inhibition
1,O=C(CCNCCCl)c1ccccc1,inactive: 8%
2,CN(C)C(=O)OCCc1n(C)cc[n+]1C,inactive: 1.1%
3,CC1CCN(C(=O)Oc2c(Cl)cc(Cl)c3cccnc23)CC1,inactive: -35.6%
4,COc1ccc(C2=NCC(CBr)S2)cc1 (configuration not stated),inactive: -2.16%
5,O=[N+]([O-])c1cccc2n[nH]nc12,inactive: -30.1%
6,CC(=O)N1C2C3N(C(C)=O)C1C1N(C(C)=O)C(C(N1C(C)=O)N3C(C)=O)N2C(C)=O,inactive: -2.6%
7,Cc1ccc(NP(=O)(Oc2ccccc2)Oc2ccccc2)nc1,inactive: 6.88%
8,CCc1nc2c(n1)c1c(non1O)c1c2no[n+]1[O-],inactive: 0.44%
9,O=[N+]([O-])c1cc([N+](=O)[O-])c(CCNc2ccccc2)c([N+](=O)[O-])c1,inactive: 34.8%
10,CC(C)(C)C(=O)NC(Sc1ccncn1)C(Cl)(Cl)Cl (configuration not stated),inactive: 3.21%
11,O=[N+]([O-])c1ncn(CCn2ncnc2[N+](=O)[O-])n1,inactive: -2.12%
12,O=[N+]([O-])c1cccc(NC2=NCC(CBr)S2)c1 (configuration not stated),inactive: -5.75%
13,COC(=O)C1(C)COP(=O)(Nc2ccccc2)OC1 (configuration not stated),inactive: -15.3%
14,O=C(O)CNc1ccc([As](=O)(O)O)cc1,inactive: -13.1%
15,O=P1(N(CCCl)CCCl)OCCCS1 (configuration not stated),inactive: -8.13%
16,Clc1n[nH]nc1-c1nn[nH]n1,inactive: -8.39%
17,O=C(Nc1cc([As](=O)(O)O)ccc1O)c1ccccc1,inactive: 1.57%
18,CC(=O)NC(SC(=S)N(C)C)C(Cl)(Cl)Cl (configuration not stated),inactive: -12.4%
19,O=[N+]([O-])c1ncn(CCn2cnc([N+](=O)[O-])n2)n1,inactive: -12.4%
20,O=[As](O)(c1ccccc1)c1ccc(O)cc1,inactive: 7.35%
21,O=C1CCCCC1CNCCBr (configuration not stated),inactive: -8%
22,O=[N+]([O-])c1ccc(O)c(C=NNc2ccc([N+](=O)[O-])cc2[N+](=O)[O-])c1,inactive: 9.07%
23,Nc1ccc([As](=O)(O)c2ccc([N+](=O)[O-])cc2)cc1,inactive: 7.06%

row,SMILES,inhibition
1,C(Cc1nn[nH]n1)Cc1nn[nH]n1,inactive: 4.26%
2,O=C(OC1CN2CCC1CC2)c1cccc(Cl)c1 (configuration not stated),inactive: -0.05%
3,COc1ccc(N)c([N+](=O)[O-])c1[N+](=O)[O-],inactive: 8.43%
4,O=P(Nc1ccccn1)(c1ccc(Br)cc1)c1ccc(Br)cc1,inactive: -8.92%
5,CN(C)C1(CNC(=O)c2ccc(Cl)c(S(N)(=O)=O)c2)CCCCC1,inactive: -13.2%
6,O=P(Nc1nc2ccccc2s1)(c1ccccc1)c1ccccc1,inactive: -5.41%
7,CCN(C(=NP(=O)(N1CCOCC1)N1CCOCC1)N1CCOCC1)c1ccc(OC)cc1,inactive: -4%
8,C[C@H]1OP(=O)(Oc2ccccc2)[C@H](O)[C@H](O)[C@H]1N=[N+]=[N-] (some centres not stated),inactive: -0.15%
9,CC(C)C(=O)NC(Sc1ccccc1)C(Cl)(Cl)Cl (configuration not stated),inactive: -27%
10,O=P(Nc1nccs1)(c1ccccc1)c1ccccc1,inactive: -16.6%
11,CCNC(=S)N=C(N)N[N+](=O)[O-],inactive: -4.26%
12,CC(C)=NNC(=N)N[N+](=O)[O-],inactive: -9.89%
13,c1nnnn1CCn1cnnn1,inactive: -7.05%
14,NC(=NO)c1c(N)no[n+]1[O-],inactive: 0.24%
15,N#C/C(=C\c1ccc(N(CCBr)CCBr)cc1)C(N)=O,inactive: -6.39%
16,CC(=O)c1ccc(N2CC2c2ccncc2)cc1 (configuration not stated),inactive: -5.93%
17,COC(=O)C1(C)COP(=O)(NCc2ccccc2)OC1 (configuration not stated),inactive: -9.31%
18,Cc1ccccc1CN(C)C(=O)COC(=O)C(O)(c1ccccc1)c1ccccc1,inactive: 1.29%
19,C[C@@H]1C=CCP(=O)(Oc2ccccc2)O1 (some centres not stated),inactive: -14.9%
20,C[C@H]1OP(=O)(Oc2ccccc2)C[C@@H]2O[C@@H]21 (some centres not stated),inactive: -7.38%
21,CCOc1ccc(Nc2c([N+](=O)[O-])cc(C(F)(F)F)cc2[N+](=O)[O-])c([N+](=O)[O-])c1,inactive: 5%
